{"source": "paper PMC8623468", "proteins": {"B1": {"name": "Recombinant human L-ferritin homopolymer (protein)", "chain": "MSSQIRQNYSTDVEAAVNSLVNLYLQASYTYLSLGFYFDRDDVALEGVSHFFRELAEEKREGYERLLKMQNQRGGRALFQDIKKPAEDEWGKTPDAMKAAMALEKKLNQALLDLHALGSARTDPHLCDFLETHFLDEEVKLIKKMGDHLTNLHRLGGPEAGLGEYLFERLTLKHD"}}, "key": {"P02792 [1]": {"biological_target": "P02792", "experiment": "SEC; apoferritin samples on Superdex 200 Increase 10/300 GL, absorbance at 280 nm; cage monomers to cage oligomers; peak areas, semiquantitative"}, "P02792 [2]": {"biological_target": "P02792", "experiment": "SEC; ferritin samples after gold nanoparticle synthesis (FT-AuNP) on Superdex 200 Increase 10/300 GL, absorbance at 280 and 550 nm; cage monomers to cage oligomers; peak areas, semiquantitative"}}}
{"protein": "B1", "values": [{"measurement": "oligomer fraction of the SEC peak areas", "setting": "P02792 [1]", "value": 39.9, "unit": "%"}, {"measurement": "oligomer fraction of the SEC peak areas", "setting": "P02792 [2]", "value": 25.6, "unit": "%"}]}
